The values below are quoted from earlier work in patent US20240050950A1, “GRADIENT-BASED MICROFLUIDIC CIRCUIT, DEVICE, AND METHOD FOR PERFORMING AN ASSAY” (priority 2020, published 2024).

Like-named read-outs stand apart in the source and are kept apart here.

For the series the following is noted: cited from earlier work.

With `CC(=O)Nc1c2sscc-2n(C)c1=O` [Thiolutin], the Molar volume (Table 3, antifungal drugs and other molecules) is reported as 146.5 ± 5.0 cm^3.

B1: Ibritumomab Tiuxetan (conjugate, chains of the INN, looked up)
heavy: QAYLQQSGAELVRPGASVKMSCKASGYTFTSYNMHWVKQTPRQGLEWIGAIYPGNGDTSYNQKFKGKATLTVDKSSSTAYMQLSSLTSEDSAVYFCARVVYYSNSYWYFDVWGTGTTVTVSAPSVYPLAPVCGDTTGSSVTLGCLVKGYFPEPVTLTWNSGSLSSGVHTFPAVLQSDLYTLSSSVTVTSSTWPSQSITCNVAHPASSTKVDKKIEPRGPTIKPCPPCKCPAPNLLGGPSVFIFPPKIKDVLMISLSPIVTCVVVDVSEDDPDVQISWFVNNVEVHTAQTQTHREDYNSTLRVVSALPIQHQDWMSGKEFKCKVNNKDLPAPIERTISKPKGSVRAPQVYVLPPPEEEMTKKQVTLTCMVTDFMPEDIYVEWTNNGKTELNYKNTEPVLDSDGSYFMYSKLRVEKKNWVERNSYSCSVVHEGLHNHHTTKSFSR
light: QIVLSQSPAILSASPGEKVTMTCRASSSVSYMHWYQQKPGSSPKPWIYAPSNLASGVPARFSGSGSGTSYSLTISRVEAEDAATYYCQQWSFNPPTFGAGTKLELKRADAAPTVFIFPPSDEQLKSGTASVVCLLNNFYPREAKVQWKVDNALQSGNSQESVTEQDSKDSTYSLSSTLTLSKADYEKHKVYACEVTHQGLSSPVTKSFN
modifications: tiuxetan chelator
Regarding B1, where the note is “Table 2, anticancer drugs”, the Molar volume is reported as 399.8 ± 7.0 cm^3.
